Here are results for 14 molecules from patent US20190185560A1 (Novo Nordisk, published 2019).

Chains of the proteins cited; added tags and fusions are not shown. Residues count along the entry.
UniProt Q9NP99, 21-234 limits assumed: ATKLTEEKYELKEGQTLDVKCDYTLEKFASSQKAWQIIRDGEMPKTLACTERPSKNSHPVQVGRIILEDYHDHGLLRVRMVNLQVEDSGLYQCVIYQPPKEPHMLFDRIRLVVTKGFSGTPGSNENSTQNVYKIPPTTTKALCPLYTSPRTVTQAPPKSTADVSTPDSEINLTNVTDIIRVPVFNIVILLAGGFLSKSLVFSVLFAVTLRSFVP
UniProt Q9NP99, 21-205 limits assumed: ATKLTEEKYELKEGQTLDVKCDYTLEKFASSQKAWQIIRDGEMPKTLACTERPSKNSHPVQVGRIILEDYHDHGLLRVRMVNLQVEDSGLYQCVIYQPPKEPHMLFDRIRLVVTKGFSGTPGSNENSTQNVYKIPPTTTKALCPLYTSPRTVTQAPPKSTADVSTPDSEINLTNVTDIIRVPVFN

B1: mAb 0170 (humanised TREM-1 antibody, mAb 0170 of WO2013/120553) (antibody, V domains shown)
VH: EVQLVESGGGLVQPGGSLKLSCAASGFTFSTYAMHWVRQASGKGLEWVGRIRTKSSNYATYYAASVKGRFTISRDDSKNTAYLQMNSLKTEDTAVYYCTRDMGIRRQFAYWGQGTLVTVSS
VL: DIVLTQSPDSLAVSLGERATINCRASESVDTFDYSFLHWYQQKPGQPPKLLIYRASNLESGVPDRFSGSGSGTDFTLTISSLQAEDVAVYYCQQSNEDPYTFGQGTKLEIKR
notes: also called mAb 170
B2: mAb 0320 (mAb 0170 variant, light chain E97Q) (antibody, human IgG4 S228P, kappa, V domains shown)
VH: B1 VH
VL: B1 VL with E97Q
notes: Charge patch mutation
B3: mAb 0324 (mAb 0170 variant, heavy chain A59Y) (antibody, human IgG4 S228P, kappa, V domains shown)
VH: B1 VH with A59Y
VL: B1 VL
B4: mAb 0317 (mAb 0170 variant, light chain E27Q, E97S) (antibody, human IgG4 S228P, kappa, V domains shown)
VH: B1 VH
VL: B1 VL with E27Q, E97S
notes: Charge patch mutations
B5: mAb 0319 (mAb 0170 variant, light chain E97S) (antibody, human IgG4 S228P, kappa, V domains shown)
VH: B1 VH
VL: B1 VL with E97S
notes: Charge patch mutation
B6: mAb 0321 (mAb 0170 variant, light chain E27Q) (antibody, human IgG4 S228P, kappa, V domains shown)
VH: B1 VH
VL: B1 VL with E27Q
notes: Charge patch mutation
B7: mAb 0318 (mAb 0170 variant, light chain E27Q, E97Q) (antibody, human IgG4 S228P, kappa, V domains shown)
VH: B1 VH
VL: B1 VL with E27Q, E97Q
notes: Charge patch mutations
B8: mAb 0333 (mAb 0170 variant, heavy chain A59Y, light chain F32A, E27Q, E97Q) (antibody, human IgG4 S228P, kappa, V domains shown)
VH: B1 VH with A59Y
VL: B1 VL with E27Q, F32A, E97Q
B9: mAb 0326 (mAb 0170 variant, heavy chain A59Y, N57S) (antibody, human IgG4 S228P, kappa, V domains shown)
VH: B1 VH with N57S, A59Y
VL: B1 VL
B10: mAb 0325 (mAb 0170 variant, heavy chain N57S) (antibody, human IgG4 S228P, kappa, V domains shown)
VH: B1 VH with N57S
VL: B1 VL
B11: mAb 0323 (mAb 0170 variant, light chain F32S) (antibody, human IgG4 S228P, kappa, V domains shown)
VH: B1 VH
VL: B1 VL with F32S
B12: mAb 0322 (mAb 0170 variant, light chain F32A) (antibody, human IgG4 S228P, kappa, V domains shown)
VH: B1 VH
VL: B1 VL with F32A
B13: mAb 0332 (mAb 0170 variant, heavy chain A59Y, light chain E27Q, E97Q) (antibody, human IgG4 S228P, kappa, V domains shown)
VH: B1 VH with A59Y
VL: B1 VL with E27Q, E97Q
B14: mAb 0330 (mAb 0170 variant, light chain F32A, E27Q, E97Q) (antibody, human IgG4 S228P, kappa, V domains shown)
VH: B1 VH
VL: B1 VL with E27Q, F32A, E97Q

Numbering of substitutions follows the chain as printed. Numbers in names are those of the source.

For the first assay, the target named is T1, human TREM-1 on cells (BWZ′36/hTREM-1 reporter cell line; hypoxic M2 macrophages) (human, UniProt Q9NP99 21-234). In words: cell-based or functional assay.
Regarding B1, the “IC50: inhibition of B-galactosidase signal of BWZ'36/hTREM-1 reporter cells stimulated with PGN and recombinant PGLYRP1” value stood at 0.24 nM.

As to B2, the “IC50: inhibition of B-galactosidase signal of BWZ'36/hTREM-1 reporter cells stimulated with PGN and recombinant PGLYRP1” value amounted to 0.39 nM.

For the molecule B3, the “IC50: inhibition of B-galactosidase signal of BWZ'36/hTREM-1 reporter cells stimulated with PGN and recombinant PGLYRP1” value was 0.41 nM.

Consider B4, for which the “IC50: inhibition of B-galactosidase signal of BWZ'36/hTREM-1 reporter cells stimulated with PGN and recombinant PGLYRP1” value was 0.21 nM.

On to B5, for which the “IC50: inhibition of B-galactosidase signal of BWZ'36/hTREM-1 reporter cells stimulated with PGN and recombinant PGLYRP1” value stood at 0.23 nM.

Consider B6, for which the “IC50: inhibition of B-galactosidase signal of BWZ'36/hTREM-1 reporter cells stimulated with PGN and recombinant PGLYRP1” value amounted to 0.2 nM.

Turning to B7, the “IC50: inhibition of B-galactosidase signal of BWZ'36/hTREM-1 reporter cells stimulated with PGN and recombinant PGLYRP1” value stood at 0.47 nM.

As to B8, the “IC50: inhibition of B-galactosidase signal of BWZ'36/hTREM-1 reporter cells stimulated with PGN and recombinant PGLYRP1” value turned out to be 0.33 nM.

Regarding B9, the “IC50: inhibition of B-galactosidase signal of BWZ'36/hTREM-1 reporter cells stimulated with PGN and recombinant PGLYRP1” value was 0.36 nM.

As to B10, the “IC50: inhibition of B-galactosidase signal of BWZ'36/hTREM-1 reporter cells stimulated with PGN and recombinant PGLYRP1” value worked out at 0.31 nM.

In the case of B11, the “IC50: inhibition of B-galactosidase signal of BWZ'36/hTREM-1 reporter cells stimulated with PGN and recombinant PGLYRP1” value stood at 0.35 nM.

Take B12: the “IC50: inhibition of B-galactosidase signal of BWZ'36/hTREM-1 reporter cells stimulated with PGN and recombinant PGLYRP1” value was 0.26 nM.

Turning to B13, the “IC50: inhibition of B-galactosidase signal of BWZ'36/hTREM-1 reporter cells stimulated with PGN and recombinant PGLYRP1” value stood at 0.32 nM.

For B14, the “IC50: inhibition of B-galactosidase signal of BWZ'36/hTREM-1 reporter cells stimulated with PGN and recombinant PGLYRP1” value is 0.24 nM.

The target of a further assay is T1, human TREM-1 on cells (BWZ′36/hTREM-1 …). The experiment in a line: cell-based or functional assay. The source holds these as a separate data set.
B1: the “IC50: inhibition of B-galactosidase signal of BWZ'36/hTREM-1 reporter cells stimulated with PGN and PGLYRP1 expressed by activated neutrophils” value (“IC50: inhibition … by activated neutrophils” for short) was determined as 0.24 nM.

With B2, the “IC50: inhibition … by activated neutrophils” value was 0.32 nM.

Consider B3, for which the “IC50: inhibition … by activated neutrophils” value stood at 0.37 nM.

Consider B4, for which the “IC50: inhibition … by activated neutrophils” value worked out at 0.33 nM.

As for B5, the “IC50: inhibition … by activated neutrophils” value stood at 0.27 nM.

B6: the “IC50: inhibition … by activated neutrophils” value came to 0.19 nM.

B7: the “IC50: inhibition … by activated neutrophils” value amounted to 0.49 nM.

For the molecule B9, the “IC50: inhibition … by activated neutrophils” value amounted to 0.31 nM.

On to B10, for which the “IC50: inhibition … by activated neutrophils” value was 0.31 nM.

In the case of B11, the “IC50: inhibition … by activated neutrophils” value was 0.34 nM.

For the molecule B12, the “IC50: inhibition … by activated neutrophils” value came to 0.26 nM.

As for B14, the “IC50: inhibition … by activated neutrophils” value stood at 0.22 nM.

The target of another assay is T2, human TREM-1-Fc (human, UniProt Q9NP99 21-205, limits assumed).
T2 construct: also called hTREM-1
The experiment in a line: SPR (ProteOn), antibody captured via anti-Fc, TREM-1-Fc as analyte, 1:1 Langmuir fit, 25 C. How it is done: (§1) The binding kinetics of the mAb 0170 variants towards human TREM-1-Fc and cynomolgus TREM-1-Fc were determined, respectively. Binding studies were performed on a ProteOn Analyzer (BioRad) that measures molecular interactions in real time through surface plasmon resonance. Experiments were run at 25° C. and the samples were stored at 15° C. in the sample compartment. The signal (RU, response units) reported by the ProteOn is directly correlated to the mass on the individual sensor chip surfaces in the six parallel flow cells. Anti-human Fc monoclonal or anti-murine Fc polyclonal antibody from Biacore human or mouse Fc capture kits were immobilized in horizontal direction onto flow cells of a GLM sensor chip according to the manufacturer's instructions. The final immobilization level of capture antibody was approximately 2600-6000 RU in each experiment. The capture of purified monoclonal mouse or recombinantly expressed anti-hTREM-1 antibodies was conducted by diluting the antibodies to 5-10 nM into running buffer (10 mM Hepes 0.15 M NaCl, 5 mM EDTA, 0.05% surfactant P20, pH 7.4) followed by injection in vertical direction at 30 μL/min for 60 sec, creating reference interspots adjacent to all flow cells with only anti-Fc antibody immobilized. […] Binding of hTREM-1 or cTREM-1 proteins was conducted by injecting analyte (antigen) over all flow cells in horizontal direction to allow for comparative analyses of binding to different captured anti-TREM-1 antibodies relative to binding to the reference interspot. hTREM-1 or cTREM-1 proteins were diluted serially 1:3 to 1.2-100 nM or into running buffer, injected at 100 μL/min for 250 s and allowed to dissociate for 600 s. The GLM surface was regenerated after each injection cycle of analyte via two 18 s injections of 10 mM Glycine, pH 1.7 and 50 mM NaOH at 100 μL/min. This regeneration step removed the anti-TREM-1 antibody and any bound TREM-1 protein from the immobilized capture antibody surface and allowed for the subsequent binding of the next interaction sample pair.
In general, Kd refers to a measure of binding affinity in units of concentration. Read a low Kd as a tighter complex. In general, koff refers to the rate constant with which the complex falls apart. A high value points to fast dissociation. As a reminder, the kon is a measure of how fast the partners come together. Lower therefore signals slow association. B2: the Kd stood at 0.2 nM, the koff is 0.0007 s⁻¹ and the on-rate (kon) was 4e+06 M⁻¹ s⁻¹.

In turn, B3 showed a dissociation constant Kd of 0.3 nM, a koff of 0.0008 s⁻¹ and an association rate constant (kon) of 3e+06 M⁻¹ s⁻¹.

As to B4, the Kd came to 0.2 nM, the koff was 0.0006 s⁻¹ and the kon worked out at 4e+06 M⁻¹ s⁻¹.

On to B5, for which the equilibrium dissociation constant (Kd) turned out to be 0.2 nM, the koff was 0.0006 s⁻¹ and the kon came out at 4e+06 M⁻¹ s⁻¹.

In turn, B6 showed a Kd of 0.2 nM, a koff of 0.0006 s⁻¹ and an on-rate constant (kon) of 3e+06 M⁻¹ s⁻¹.

B7: the Kd stood at 0.2 nM, the koff came to 0.0007 s⁻¹ and the kon is 3e+06 M⁻¹ s⁻¹.

As to B8, the Kd came out at 0.3 nM, the koff came out at 0.0005 s⁻¹ and the kon amounted to 2e+06 M⁻¹ s⁻¹.

Consider B9, for which the dissociation constant (Kd) is 0.2 nM, the koff is 0.0007 s⁻¹ and the kon stood at 3e+06 M⁻¹ s⁻¹.

For B10, the Kd was found to be 0.08 nM, the koff was determined as 0.0003 s⁻¹ and the kon came to 4e+06 M⁻¹ s⁻¹.

On to B11, for which the affinity, expressed as Kd, was 0.3 nM; the koff turned out to be 0.0006 s⁻¹; the kon was found to be 2e+06 M⁻¹ s⁻¹.

B12: the Kd came to 0.1 nM, the koff worked out at 0.0003 s⁻¹ and the kon worked out at 3e+06 M⁻¹ s⁻¹.

As to B13, the dissociation constant (Kd) was determined as 0.4 nM, the koff stood at 0.001 s⁻¹ and the kon was 3e+06 M⁻¹ s⁻¹.

Molecule B14 had a Kd of 0.1 nM, a koff of 0.0003 s⁻¹ and a kon of 2e+06 M⁻¹ s⁻¹.

In the next assay the target is T3, cynomolgus TREM-1-Fc (cynomolgus monkey).
T3 construct: also called cTREM-1
T3 chain: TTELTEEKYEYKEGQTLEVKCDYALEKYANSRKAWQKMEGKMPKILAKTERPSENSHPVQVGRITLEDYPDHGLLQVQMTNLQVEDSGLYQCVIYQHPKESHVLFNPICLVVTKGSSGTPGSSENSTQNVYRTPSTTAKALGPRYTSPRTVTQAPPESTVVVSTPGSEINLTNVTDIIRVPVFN
The description is as above. How it is done:
as §1
B1 gave a koff of 0.0004 s⁻¹ and a kon of 300000 M⁻¹ s⁻¹.

In the case of B2, the koff stood at 0.0006 s⁻¹ and the kon was found to be 200000 M⁻¹ s⁻¹.

In the case of B3, the koff was 0.0006 s⁻¹ and the kon was 200000 M⁻¹ s⁻¹.

B4: the koff was found to be 0.0007 s⁻¹ and the kon was 300000 M⁻¹ s⁻¹.

In the case of B5, the koff was found to be 0.0006 s⁻¹ and the kon amounted to 300000 M⁻¹ s⁻¹.

B6 came in with a koff of 0.0006 s⁻¹ and a kon of 300000 M⁻¹ s⁻¹.

Regarding B7, the koff is 0.0007 s⁻¹ and the on-rate (kon) was 300000 M⁻¹ s⁻¹.

Regarding B8, the koff came to 0.0001 s⁻¹ and the kon was 400000 M⁻¹ s⁻¹.

The molecule B9 displayed a kon of 200000 M⁻¹ s⁻¹.

As to B10, the dissociation rate constant (koff) was around 0.0003 s⁻¹ and the kon came to 200000 M⁻¹ s⁻¹.

B11 registered a koff of 0.0002 s⁻¹ and an association rate constant (kon) of 400000 M⁻¹ s⁻¹.

B12 had a koff of 0.0001 s⁻¹ and a kon of 600000 M⁻¹ s⁻¹.

The molecule B13 gave a koff of 0.0008 s⁻¹ and a kon of 200000 M⁻¹ s⁻¹.

For B14, the off-rate (koff) is 7e-05 s⁻¹ and the kon turned out to be 600000 M⁻¹ s⁻¹.
